Results from patent publication US11642339B2 (THERAVANCE BIOPHARMA R&D IP, LLC, priority 2017, dated 2023).
Read-outs that look alike come from different tables or passages of the source.

Experiments:
coronary artery tone = conditions: across multiple species including human
[1] = test system: patients with diabetic or idiopathic gastroparesis; conditions: Phase 2a; 5, 15, 30 mg once daily, 1-week periods
platelet aggregation = test: Off-target: platelet aggregation
[2] = test system: subjects with diabetic or idiopathic gastroparesis

Substance: 1-isopropyl-2-oxo-1,2-dihydroquinoline-3-carboxylic acid {(1S,3R,5R)-8-[(R)-2-hydroxy-3-(methanesulfonyl-methyl-amino)propyl]-8-azabicyclo[3.2.1]oct-3-yl}amide [Velusetrag]
- effects on coronary artery tone (coronary artery tone): no effects
- tolerability [1]: well tolerated
- effects on platelet aggregation (platelet aggregation): no effects
- Subjects who did not complete study treatment period: Adverse Event, % ([2]; 5 mg/day): (3.4) %
- Subjects who did not complete study treatment period: Adverse Event, % ([2]; 15 mg/day): (10.5) %
- subjects with treatment emergent adverse events ([2]; 30 mg group): 50.0%
- Subjects who did not complete study treatment period: Adverse Event, % ([2]; 30 mg/day): (6.9) %
- tolerability ([2]; DIGEST I, 12 weeks): generally well-tolerated
- significant adverse events ([2]; DIGEST I, 232 subjects dosed): No significant adverse events
